Source: PubChem BioAssay AID588475 (Sanford-Burnham Center for Chemical Genomics, 2011)
This is a selection; strong and weak results do not stand in their true shares. Some of these compounds have results that are not shown, active ones among them. Calls of active or inactive are those of the source.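 How the source made its calls: active means inhibition of the ligand-induced calcium signal above about 50% at the single tested concentration (limit read from the data); inactive means the rest.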

Assay: blockers of CRF-evoked CRF-R2/CRF-BP calcium response – cell-based, HEK293, calcium dye fluorescence, uHTS, primary screen (AID 588475)
Conditions: CRF-induced calcium fluorescence, at 11.8 µM, stronger effect = higher value

SMILES | inhibition
COc1ccc(C(=O)NCC2(N(C)C)CCCCC2)cc1 | inactive: 2.2%
O=C(NCC1(N2CCCCC2)CCCCC1)c1cccc(Br)c1 | inactive: 7.39%
Cc1cc(C(=O)NCC2(N3CCCCC3)CCCCC2)ccc1[N+](=O)[O-] | inactive: 0.51%
CCN1CCCC(OC(=O)C2(O)c3ccccc3C=Cc3ccccc32)C1 (stereo unspecified) | inactive: -27.8%
O=C(NCC1(N2CCCCC2)CCCCC1)c1cc(F)c(F)cc1Cl | inactive: -2.97%
C=CCN1CCN(CCOC(=O)C(O)(c2ccccc2)c2ccccc2)CC1 | inactive: 18%
CN(C)C1CCCC1OC(=O)C(O)(c1ccccc1)c1ccccc1 (stereo unspecified) | inactive: -10.5%
CN(C)c1ccc(C(=O)NCC2(N(C)C)CCCCC2)cc1 | inactive: 5.06%
Cc1ccccc1C(=O)NCC1(N2CCCCC2)CCCCC1 | inactive: 4.19%
Cc1ccc(C(=O)NCC2(N3CCCCC3)CCCCC2)cc1 | inactive: 12.5%
COc1cc(SC)ccc1C(=O)NCC1(N(C)C)CCCCC1 | inactive: 6.54%
CCN(CC)CC(C)C(C)OC(=O)C(O)(c1ccccc1)c1ccccc1 (stereo unspecified) | inactive: -5.18%
CC(C)N1C(=O)CC2(CCN(CCOC(=O)C(O)(c3ccccc3)c3ccccc3)CC2)C1=O | inactive: -6.68%
CN1[C@@H]2CC[C@H]1CC(OC(=O)C(O)(c1ccccc1)c1ccccc1)C2 (stereo partly specified) | inactive: -5%
O=C(NCC1(N2CCCCC2)CCCCC1)c1cc([N+](=O)[O-])ccc1Cl | inactive: -9.78%
O=C(OCCN1CCCC1)C(O)(c1ccccc1)c1ccccc1 | inactive: 3.33%
CC(C)Oc1ccc(C(=O)NCC2(N(C)C)CCCCC2)cc1 | inactive: -5.39%
CN(C)c1cccc(C(=O)NCC2(N(C)C)CCCCC2)c1 | inactive: 14.6%
C=C(C)C#CC(O)(C(=O)OC1CCN(C)CC1)c1ccccc1 (stereo unspecified) | inactive: -20.3%
COc1ccc(Br)c(C(=O)NCC2(N3CCCCC3)CCCCC2)c1 | inactive: -9.28%
O=C(OC1CN2CCC1CC2)C(CO)(c1ccccc1)c1ccccc1 (stereo unspecified) | inactive: 12.3%
O=C(NCC1(N2CCCCC2)CCCCC1)c1cccc(Cl)c1 | inactive: -9.64%
COc1ccc(Cl)cc1C(=O)NCC1(N(C)C)CCCCC1 | inactive: 12.9%
COc1cccc(C(=O)NCC2(N3CCCCC3)CCCCC2)c1 | inactive: 11.1%
COc1cc(C(=O)NCC2(N(C)C)CCCCC2)c([N+](=O)[O-])cc1OC | inactive: -4.83%
CN(C)C1(CNC(=O)c2ccc(Br)cc2)CCCCC1 | inactive: 1.13%
